Data taken from ChEMBL document CHEMBL1124781.

By UniProt entry, the sequences of proteins in these tests, tags left out.
UniProt P32300, whole entry, looked up: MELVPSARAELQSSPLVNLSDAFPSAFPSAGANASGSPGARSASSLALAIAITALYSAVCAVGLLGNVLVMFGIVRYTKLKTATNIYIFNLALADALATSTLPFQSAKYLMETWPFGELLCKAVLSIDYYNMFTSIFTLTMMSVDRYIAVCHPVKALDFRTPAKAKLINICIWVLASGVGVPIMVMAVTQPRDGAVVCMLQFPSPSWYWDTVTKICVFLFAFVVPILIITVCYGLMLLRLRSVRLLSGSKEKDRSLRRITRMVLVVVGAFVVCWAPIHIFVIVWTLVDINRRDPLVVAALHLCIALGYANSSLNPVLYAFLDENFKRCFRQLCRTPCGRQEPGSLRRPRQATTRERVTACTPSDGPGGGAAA

Biological target: Delta-type opioid receptor (Mus musculus) (UniProt P32300)
Test: Effective dose required for antagonist activity against Opioid receptor delta 1

In the case of `CN(C(=O)Cc1ccc(Cl)c(Cl)c1)C1CCCCC1N1CCCC1` (stereo unspecified), the ED50 ratio was 3.18.
